We go through one compound from ChEMBL document CHEMBL2417388, “Design and synthesis of (4E)-4-(4-substitutedbenzylideneamino)-3-substituted-2,3-dihydro-2-thioxothiazole-5-carbonitrile as novel A2A receptor antagonists” (Bioorg Med Chem, 2013).

This experiment relates to HEK293. Kind of experiment: Selectivity ratio of Ki for human A1 receptor expressed in HEK293 cell membranes to Ki for human A2A receptor expressed in HEK293 cell membranes. The experiment is classed as cell-based.

Molecules are shown by their SMILES.

For the compound `N#Cc1sc(=S)n(-c2ccccc2)c1/N=C/c1ccc(Br)cc1`, the Ratio Ki turned out to be 44300.
